Test results taken from patent publication US11788044B2, “Rheologically biomimetic fluid surrogate” (EMULATE, INC., priority 2017, dated 2023).

Test system: iHBMEC barrier function
Assay: iHBMEC barrier function on BBB-Chip (dextran leakage, tight junctions)
Type: cell-based, human
Conditions: Puromycin selection, long-term

COc1ccc(C[C@H](N)C(=O)N[C@H]2[C@@H](O)[C@H](n3cnc4c(N(C)C)ncnc43)O[C@@H]2CO)cc1 [Puromycin]
barrier maintenance or robustness: does not seem to contribute to improved barrier maintenance or robustness
